#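 Method: 48-hour compound exposure of cells in 96-well plates, five concentrations, linear interpolation of endpoints. GI50 marks 50% less growth. At the TGI there is no net growth.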
# Columns and labels:
# Assay in all cases: growth of human tumour cells (NCI), 48 h
# [1] = system: COLO 205 colon
# [2] = system: HT29 colon
# [3] = system: HOP-92 NSCLC
# [4] = system: ACHN renal
# [5] = system: SNB-19 CNS
# [6] = system: MOLT-4 leukemia
# [7] = system: T-47D breast
# [8] = system: SK-MEL-5 melanoma
# [9] = system: SNB-75 CNS
# [10] = system: HCT-116 colon
# [11] = system: A549 NSCLC
# [12] = system: OVCAR-3 ovarian
# [13] = system: LOX IMVI melanoma
# [14] = system: BT-549 breast
# [15] = system: CAKI-1 renal
# [16] = system: UACC-62 melanoma
# [17] = system: MDA-MB-435
# [18] = system: U251 CNS
# [19] = system: SK-MEL-2 melanoma
# [20] = system: RPMI-8226 leukemia
# [21] = system: 786-0 renal
# [22] = system: IGROV1 ovarian
# [23] = system: SK-MEL-28 melanoma
# [24] = system: SF-268 CNS
# [25] = system: NCI-H460 lung
# [26] = system: MALME-3M melanoma
# [27] = system: OVCAR-8 ovarian
# [28] = system: HL-60(TB) leukemia
# [29] = system: HS 578T breast
# [30] = system: M14 melanoma
# [31] = system: OVCAR-4 ovarian
# [32] = system: HCC-2998 colon
# [33] = system: K-562 leukemia
# [34] = system: UACC-257 melanoma
# [35] = system: KM12 colon
# [36] = system: TK-10 renal
# [37] = system: NCI-H522 lung
# [38] = system: A498 renal
# [39] = system: HOP-62 NSCLC
# [40] = system: SR leukemia
# [41] = system: CCRF-CEM leukemia
# [42] = system: NCI-H226 lung
# [43] = system: SF-539 CNS
# [44] = system: SK-OV-3 ovarian
# [45] = system: SN12C renal
# [46] = system: MDA-MB-231 breast
# [47] = system: NCI/ADR-RES ovarian
# [48] = system: SW-620 colon
# [49] = system: UO-31 renal
# [50] = system: MCF7 breast
# [51] = system: EKVX NSCLC
# [52] = system: DU-145 prostate
# [53] = system: NCI-H23 lung
# [54] = system: SF-295 CNS
# [55] = system: OVCAR-5 ovarian
# [56] = system: NCI-H322M lung
# [57] = system: HCT-15 colon
smiles,measurement,setting,value
CCCCCCCCCCCCCNCC(C)O.O=[N+]([O-])c1cc([N+](=O)[O-])c(O)c([N+](=O)[O-])c1 (stereo not drawn),GI50,[1],1.25 µM
same,TGI,[1],36.6 µM
same,GI50,[2],2.46 µM
same,TGI,[2],13.9 µM
same,GI50,[3],2.52 µM
same,TGI,[3],22.1 µM
same,GI50,[4],14.2 µM
same,TGI,[4],30.1 µM
same,GI50,[5],15.6 µM
same,TGI,[5],35.8 µM
same,GI50,[6],12.8 µM
same,TGI,[6],32.8 µM
same,GI50,[7],17.9 µM
same,TGI,[7],86.7 µM
same,GI50,[8],8.11 µM
same,TGI,[8],21.2 µM
same,GI50,[9],13.3 µM
same,TGI,[9],27.9 µM
same,GI50,[10],13.5 µM
same,TGI,[10],39.3 µM
same,GI50,[11],14.9 µM
same,TGI,[11],29.6 µM
same,GI50,[12],13.2 µM
same,TGI,[12],29.8 µM
same,GI50,[13],7.86 µM
same,TGI,[13],24.5 µM
same,GI50,[14],13.1 µM
same,TGI,[14],28 µM
same,GI50,[15],10.2 µM
same,TGI,[15],23.7 µM
same,GI50,[16],13.9 µM
same,TGI,[16],27.3 µM
same,GI50,[17],11.2 µM
same,TGI,[17],25.1 µM
same,GI50,[18],13.1 µM
same,TGI,[18],28.2 µM
same,GI50,[19],16 µM
same,TGI,[19],30.5 µM
same,GI50,[20],2.85 µM
same,TGI,[20],18.7 µM
same,GI50,[21],19.4 µM
same,TGI,[21],86.9 µM
same,GI50,[22],12 µM
same,TGI,[22],24.3 µM
same,GI50,[23],13.6 µM
same,TGI,[23],27.5 µM
same,GI50,[24],13.7 µM
same,TGI,[24],28 µM
same,GI50,[25],7.33 µM
same,TGI,[25],22.8 µM
same,GI50,[26],11.6 µM
same,TGI,[26],26.5 µM
same,GI50,[27],4.19 µM
same,TGI,[27],19.2 µM
same,TGI,[28],35.8 µM
same,GI50,[29],18.4 µM
same,TGI,[29],46.5 µM
same,GI50,[30],11 µM
same,TGI,[30],28.2 µM
same,GI50,[31],13.9 µM
same,TGI,[31],28.7 µM
same,GI50,[32],3.06 µM
same,TGI,[32],8.1 µM
same,GI50,[33],4.64 µM
same,TGI,[33],22.4 µM
same,GI50,[34],7.24 µM
same,TGI,[34],20.9 µM
same,GI50,[35],14.9 µM
same,TGI,[35],30.6 µM
same,GI50,[36],7.19 µM
same,TGI,[36],21 µM
same,GI50,[37],11.9 µM
same,TGI,[37],25.2 µM
same,GI50,[38],15.1 µM
same,TGI,[38],28.9 µM
same,GI50,[39],22.8 µM
same,TGI,[39],46.4 µM
same,GI50,[40],3.09 µM
same,TGI,[40],14.1 µM
same,GI50,[41],4.88 µM
same,TGI,[41],23.7 µM
same,GI50,[42],14.1 µM
same,TGI,[42],30.3 µM
same,GI50,[43],13.3 µM
same,TGI,[43],27.4 µM
same,GI50,[44],18.4 µM
same,TGI,[44],36.3 µM
same,GI50,[45],14.2 µM
same,TGI,[45],28.7 µM
same,GI50,[46],12.1 µM
same,TGI,[46],25.9 µM
same,GI50,[47],14.1 µM
same,TGI,[47],33.2 µM
same,GI50,[48],15.6 µM
same,TGI,[48],31.3 µM
same,GI50,[49],10.9 µM
same,TGI,[49],22.9 µM
same,GI50,[50],11.6 µM
same,TGI,[50],26.5 µM
same,GI50,[51],10.2 µM
same,TGI,[51],23 µM
same,GI50,[52],15.3 µM
same,TGI,[52],29.2 µM
same,GI50,[53],15.4 µM
same,TGI,[53],33.1 µM
same,GI50,[54],12.4 µM
same,TGI,[54],28.7 µM
same,GI50,[55],16.6 µM
same,TGI,[55],43.4 µM
same,GI50,[56],15.6 µM
same,TGI,[56],29.6 µM
same,GI50,[57],12.8 µM
same,TGI,[57],34 µM
